Assay results taken from patent US20190113503A1 (priority 2016, published 2019).

Assays:
human skin fibroblasts = assay: MN frequency in human skin fibroblasts (Lofti & Santelli); type: cell-based; details: maximum over literature cell lines exposed to colchicine
[1] = test system: carp (Cyprinus carpio) erythrocytes; assay: in vivo MN frequency in carp erythrocytes (Gustavino 2001); details: literature, individuals injected with the aneugen
KCB cells = details: versus control, cell line presented herein
[2] = test system: erythrocytes of the European minnow (Phoxinus phoxinus) and of the sailfin molly (Poecilia latipinna); details: fish injected with 10 mg colchicine/kg body weight; background 6.25; cited from earlier work

For `COc1cc2c(c(OC)c1OC)-c1ccc(OC)c(=O)cc1[C@@H](NC(C)=O)CC2` [colchicine], the “fold increase in MN frequency” value (human skin fibroblasts) was at most 20 fold, the “fold increase in MN frequency” value [1] was “around 5 fold” and the “fold increase in MN frequency” value (KCB cells) was 3 fold. The MN frequency [2] was 20.76%.
